Results reported in patent US8404673B2, “Carbocyclic GlyT1 receptor antagonists” (Hoffmann-La Roche Inc., priority 2009, dated 2013).

The chains behind the UniProt entries cited, without tags or fusion partners. Residues count along the entry.
UniProt P28571, 1-651 isoform 2: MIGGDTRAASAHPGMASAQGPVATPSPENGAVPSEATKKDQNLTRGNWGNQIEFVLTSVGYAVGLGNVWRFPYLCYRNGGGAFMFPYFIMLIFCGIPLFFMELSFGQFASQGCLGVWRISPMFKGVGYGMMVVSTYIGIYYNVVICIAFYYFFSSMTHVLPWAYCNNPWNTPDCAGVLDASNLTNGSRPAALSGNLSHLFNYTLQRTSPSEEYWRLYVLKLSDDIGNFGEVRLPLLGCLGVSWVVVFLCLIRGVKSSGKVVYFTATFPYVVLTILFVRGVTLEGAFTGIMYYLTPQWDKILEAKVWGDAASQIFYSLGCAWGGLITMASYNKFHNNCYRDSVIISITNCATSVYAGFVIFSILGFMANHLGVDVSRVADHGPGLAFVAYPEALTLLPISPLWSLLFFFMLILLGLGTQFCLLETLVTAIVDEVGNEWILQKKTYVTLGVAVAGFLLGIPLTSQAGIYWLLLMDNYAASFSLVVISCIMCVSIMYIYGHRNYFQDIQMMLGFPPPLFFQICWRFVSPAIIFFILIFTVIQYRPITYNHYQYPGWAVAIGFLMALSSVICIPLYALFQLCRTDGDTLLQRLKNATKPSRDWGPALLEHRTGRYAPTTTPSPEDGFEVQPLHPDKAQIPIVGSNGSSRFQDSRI

Each compound was assayed against mGlyT-1b (Mus musculus, UniProt P28571) (assay: Glycine Uptake Inhibition Assay (mGlyT-1b)). Settings: read-out: IC50 data; [3H]-glycine uptake, Flp-in-CHO cells transfected with mGlyT-1b cDNA, 20 min preincubation at 22° C.
Assay type: cell-based

SMILES | IC50
COc1cc(C(F)(F)F)cc(SC)c1C(=O)N[C@@H]1CCCC[C@@H]1NC1CCCC1 (relative stereo) | 0.0248 µM
COc1cc(C(F)(F)F)cc(SC)c1C(=O)N[C@@H]1CCCC[C@@H]1NC1CCC1 (racemic) | 0.0814 µM
COc1cc(C(F)(F)F)cc(SC)c1C(=O)N[C@@H]1CCCC[C@@H]1N1CCCC1 (single isomer, unassigned) [Example 6] | 0.0504 µM
O=C(N[C@H]1CCCC[C@H]1N1CCCC1)c1ccc(C(F)(F)F)cc1C1CC1 (racemic) | 0.0507 µM
COc1cc(C(F)(F)F)cc(SC)c1C(=O)N[C@@H]1CCCC[C@@H]1N1CCCC1 (single isomer, unassigned) [Example 7] | 0.0495 µM
CCc1cc(C(F)(F)F)ccc1C(=O)N[C@@H]1CCCC[C@@H]1N1CCCC1 (racemic) | 0.0979 µM
O=C(NC1CCCCC1NC1CCCC1)c1ccc(C(F)(F)F)cc1C1CC1 (single isomer, unassigned) [54] | 0.0799 µM
CSc1cc(C(F)(F)F)ccc1C(=O)N[C@@H]1CCCC[C@@H]1N1CCCC1 (single isomer, unassigned) | 0.092 µM
CSc1cc(C(F)(F)F)ccc1C(=O)N[C@@H]1CCCC[C@@H]1N1CCCC1 (racemic) | 0.0998 µM
COc1cc(C(F)(F)F)cc(SC)c1C(=O)N[C@@H]1CCCC[C@@H]1N1CCCC1 (racemic) | 0.0567 µM
COc1cc(C(F)(F)F)cc(C(F)(F)F)c1C(=O)N[C@@H]1CCCC[C@@H]1N1CCCC1C (stereo partly shown) | 0.0921 µM
O=C(N[C@@H]1CCCC[C@@H]1N1CCCC1)c1ccc(C(F)(F)F)cc1C1CC1 (single isomer, unassigned) [48] | 0.0869 µM
CSc1cc(C(F)(F)F)cc(C(F)(F)F)c1C(=O)N[C@@H]1CCCC[C@@H]1N1CCCC1 (single isomer, unassigned) | 0.065 µM
COc1cc(C(F)(F)F)cc(C(F)(F)F)c1C(=O)N[C@@H]1CCCC[C@@H]1NC1CCCC1 (racemic) | 0.0894 µM
CSc1cc(C(F)(F)F)cc(C(F)(F)F)c1C(=O)N[C@H]1CCCC[C@H]1N1CCCC1 | 0.0379 µM
O=C(NC1CCCCC1NC1CCCC1)c1ccc(C(F)(F)F)cc1C1CC1 (single isomer, unassigned) [Example 53] | 0.0367 µM
O=C(N[C@H]1CCCC[C@H]1NC1CCCC1)c1ccc(C(F)(F)F)cc1C1CC1 (racemic) | 0.0573 µM
O=C(N[C@H]1CCCC[C@H]1N1CCCC1)c1c(C2CC2)cc(C(F)(F)F)cc1C(F)(F)F (relative stereo) | 0.0479 µM
O=C(N[C@@H]1CCCC[C@@H]1N1CCCC1)c1ccc(C(F)(F)F)cc1C1CC1 (single isomer, unassigned) [Example 47] | 0.0227 µM

This is a selection: effects in other tests are not listed, and their absence says nothing.
